Assays:
Assay in all cases: apparent dissociation constant pKd app (kinobead competition) (-log10(M)); higher = stronger binding
[1] = biological target: BCR (UniProt P11274)
[2] = biological target: T1, TGFBR1 (UniProt P36897)
T1 sequence (whole entry): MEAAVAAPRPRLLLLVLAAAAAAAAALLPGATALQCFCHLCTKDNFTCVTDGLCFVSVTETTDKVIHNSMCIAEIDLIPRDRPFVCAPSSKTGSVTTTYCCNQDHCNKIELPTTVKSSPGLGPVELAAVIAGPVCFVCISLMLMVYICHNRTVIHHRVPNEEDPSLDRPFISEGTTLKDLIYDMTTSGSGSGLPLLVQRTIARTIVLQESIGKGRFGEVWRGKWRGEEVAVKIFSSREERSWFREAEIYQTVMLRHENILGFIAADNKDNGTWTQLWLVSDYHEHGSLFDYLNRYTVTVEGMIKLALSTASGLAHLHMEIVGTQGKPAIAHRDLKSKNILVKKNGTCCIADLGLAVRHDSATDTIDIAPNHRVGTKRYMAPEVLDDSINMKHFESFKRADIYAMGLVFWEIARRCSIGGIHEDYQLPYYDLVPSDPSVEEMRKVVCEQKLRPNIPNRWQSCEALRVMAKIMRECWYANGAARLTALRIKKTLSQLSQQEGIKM

Chains of the proteins cited; added tags and fusions are not shown. Lines headed by an entry give the natural chain unless they say otherwise; changes in a name come on top.
UniProt P11274: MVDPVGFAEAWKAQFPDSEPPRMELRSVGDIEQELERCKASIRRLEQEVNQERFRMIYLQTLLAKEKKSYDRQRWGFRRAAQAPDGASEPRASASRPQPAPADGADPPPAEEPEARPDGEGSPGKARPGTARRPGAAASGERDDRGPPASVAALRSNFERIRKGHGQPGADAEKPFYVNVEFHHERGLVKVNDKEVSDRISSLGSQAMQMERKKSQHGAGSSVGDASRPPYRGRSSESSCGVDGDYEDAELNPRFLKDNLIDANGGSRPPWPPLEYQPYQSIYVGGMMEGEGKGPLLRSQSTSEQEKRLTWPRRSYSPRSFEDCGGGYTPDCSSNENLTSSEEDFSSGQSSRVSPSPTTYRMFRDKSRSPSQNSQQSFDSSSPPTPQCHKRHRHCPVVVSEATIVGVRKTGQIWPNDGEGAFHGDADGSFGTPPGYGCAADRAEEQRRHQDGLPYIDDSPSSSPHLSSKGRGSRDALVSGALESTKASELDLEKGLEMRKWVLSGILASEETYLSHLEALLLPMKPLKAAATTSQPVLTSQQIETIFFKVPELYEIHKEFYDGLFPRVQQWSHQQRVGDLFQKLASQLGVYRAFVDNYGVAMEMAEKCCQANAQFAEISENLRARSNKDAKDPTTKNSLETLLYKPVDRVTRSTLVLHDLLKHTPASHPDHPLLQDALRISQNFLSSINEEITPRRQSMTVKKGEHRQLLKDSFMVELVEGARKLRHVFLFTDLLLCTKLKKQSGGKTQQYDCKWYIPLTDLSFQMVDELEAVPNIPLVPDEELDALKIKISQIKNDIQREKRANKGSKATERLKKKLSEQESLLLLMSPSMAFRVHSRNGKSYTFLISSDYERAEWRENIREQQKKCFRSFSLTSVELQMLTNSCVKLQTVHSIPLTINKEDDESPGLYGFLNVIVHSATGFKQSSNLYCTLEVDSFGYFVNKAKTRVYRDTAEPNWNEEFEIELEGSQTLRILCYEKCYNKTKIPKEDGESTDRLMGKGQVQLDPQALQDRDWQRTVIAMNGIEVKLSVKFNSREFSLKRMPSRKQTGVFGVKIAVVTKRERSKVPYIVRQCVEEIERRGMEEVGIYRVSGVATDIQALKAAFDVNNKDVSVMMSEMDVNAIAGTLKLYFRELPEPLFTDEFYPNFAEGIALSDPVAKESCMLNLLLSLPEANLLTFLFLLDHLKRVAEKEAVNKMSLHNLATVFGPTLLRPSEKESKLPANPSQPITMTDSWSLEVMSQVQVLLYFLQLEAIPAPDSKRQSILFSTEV
UniProt O75716, whole entry: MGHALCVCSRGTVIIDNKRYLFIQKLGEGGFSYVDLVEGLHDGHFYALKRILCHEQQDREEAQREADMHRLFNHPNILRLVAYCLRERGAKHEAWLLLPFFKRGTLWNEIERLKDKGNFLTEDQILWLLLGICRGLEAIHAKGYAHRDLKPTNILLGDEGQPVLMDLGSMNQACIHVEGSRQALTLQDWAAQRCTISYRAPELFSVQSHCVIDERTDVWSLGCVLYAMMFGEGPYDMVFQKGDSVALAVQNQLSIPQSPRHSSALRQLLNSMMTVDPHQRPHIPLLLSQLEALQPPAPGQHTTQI
UniProt Q15208: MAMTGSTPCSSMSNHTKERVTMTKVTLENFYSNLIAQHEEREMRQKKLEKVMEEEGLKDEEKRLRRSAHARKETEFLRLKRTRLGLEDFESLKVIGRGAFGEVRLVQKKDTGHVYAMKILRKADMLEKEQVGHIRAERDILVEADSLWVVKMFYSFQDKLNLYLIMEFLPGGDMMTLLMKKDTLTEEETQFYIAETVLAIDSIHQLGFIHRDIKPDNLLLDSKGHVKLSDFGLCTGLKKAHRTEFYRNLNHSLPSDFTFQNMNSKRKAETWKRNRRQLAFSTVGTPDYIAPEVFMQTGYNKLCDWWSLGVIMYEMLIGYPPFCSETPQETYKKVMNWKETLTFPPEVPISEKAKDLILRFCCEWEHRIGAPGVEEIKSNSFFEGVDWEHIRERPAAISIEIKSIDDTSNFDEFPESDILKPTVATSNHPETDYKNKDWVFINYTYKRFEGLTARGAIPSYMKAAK
UniProt Q96RR4, whole entry, looked up: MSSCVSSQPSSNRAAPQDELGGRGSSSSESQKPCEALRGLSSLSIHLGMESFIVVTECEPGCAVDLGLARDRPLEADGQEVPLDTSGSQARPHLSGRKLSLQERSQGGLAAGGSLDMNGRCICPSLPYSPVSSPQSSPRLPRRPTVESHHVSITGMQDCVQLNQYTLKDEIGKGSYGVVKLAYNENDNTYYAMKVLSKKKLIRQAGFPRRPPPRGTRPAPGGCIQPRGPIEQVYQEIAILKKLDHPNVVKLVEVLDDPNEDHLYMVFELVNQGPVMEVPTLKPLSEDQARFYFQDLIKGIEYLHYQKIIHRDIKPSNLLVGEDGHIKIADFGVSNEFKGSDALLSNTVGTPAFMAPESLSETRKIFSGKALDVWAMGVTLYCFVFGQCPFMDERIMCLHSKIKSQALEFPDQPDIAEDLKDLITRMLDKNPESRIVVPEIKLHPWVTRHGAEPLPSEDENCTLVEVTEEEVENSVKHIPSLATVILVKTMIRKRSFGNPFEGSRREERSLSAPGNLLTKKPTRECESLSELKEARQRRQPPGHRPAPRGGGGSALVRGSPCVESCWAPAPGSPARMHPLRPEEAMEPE
UniProt Q15131: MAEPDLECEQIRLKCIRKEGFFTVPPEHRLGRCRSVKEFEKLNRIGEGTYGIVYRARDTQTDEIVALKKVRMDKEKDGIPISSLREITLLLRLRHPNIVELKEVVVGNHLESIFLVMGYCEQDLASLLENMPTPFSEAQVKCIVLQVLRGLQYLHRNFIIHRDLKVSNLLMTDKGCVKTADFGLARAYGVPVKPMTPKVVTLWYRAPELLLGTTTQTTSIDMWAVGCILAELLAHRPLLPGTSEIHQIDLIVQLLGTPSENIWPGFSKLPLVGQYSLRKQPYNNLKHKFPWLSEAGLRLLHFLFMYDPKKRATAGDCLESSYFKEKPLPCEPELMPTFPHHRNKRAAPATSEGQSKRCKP
UniProt Q8TDR2: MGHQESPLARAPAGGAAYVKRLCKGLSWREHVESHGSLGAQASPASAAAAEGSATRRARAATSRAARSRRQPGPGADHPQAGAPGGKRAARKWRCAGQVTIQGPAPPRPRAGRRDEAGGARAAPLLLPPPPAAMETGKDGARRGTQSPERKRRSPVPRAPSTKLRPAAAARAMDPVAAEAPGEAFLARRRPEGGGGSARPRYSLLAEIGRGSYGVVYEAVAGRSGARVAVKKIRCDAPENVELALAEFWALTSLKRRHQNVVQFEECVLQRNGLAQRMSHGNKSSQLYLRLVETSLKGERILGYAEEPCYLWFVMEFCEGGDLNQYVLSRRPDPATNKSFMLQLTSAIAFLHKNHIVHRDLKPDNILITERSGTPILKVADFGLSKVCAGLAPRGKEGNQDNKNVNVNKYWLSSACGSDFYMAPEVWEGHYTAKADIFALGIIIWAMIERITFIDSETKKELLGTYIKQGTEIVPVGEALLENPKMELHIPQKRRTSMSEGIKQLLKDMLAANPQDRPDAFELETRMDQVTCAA

[3] = biological target: STK16 (UniProt O75716)
[4] = biological target: STK38 (UniProt Q15208)
[5] = biological target: CAMKK2 (UniProt Q96RR4)
[6] = biological target: T2, MAPKAPK5 (UniProt Q8IW41)
T2 sequence (whole entry): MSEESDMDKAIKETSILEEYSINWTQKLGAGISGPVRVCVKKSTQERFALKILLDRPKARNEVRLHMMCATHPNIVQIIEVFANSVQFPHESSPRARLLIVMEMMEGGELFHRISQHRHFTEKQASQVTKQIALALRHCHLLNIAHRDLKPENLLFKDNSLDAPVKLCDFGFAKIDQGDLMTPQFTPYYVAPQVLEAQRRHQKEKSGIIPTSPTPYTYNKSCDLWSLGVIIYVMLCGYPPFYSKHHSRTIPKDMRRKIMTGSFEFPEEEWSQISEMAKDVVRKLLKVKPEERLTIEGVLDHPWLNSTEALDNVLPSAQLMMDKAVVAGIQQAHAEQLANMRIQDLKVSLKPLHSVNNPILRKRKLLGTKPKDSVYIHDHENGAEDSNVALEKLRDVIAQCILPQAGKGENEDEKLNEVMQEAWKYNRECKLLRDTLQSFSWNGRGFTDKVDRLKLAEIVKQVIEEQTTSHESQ

[7] = biological target: T3, EPHB3 (UniProt P54753)
T3 sequence (whole entry): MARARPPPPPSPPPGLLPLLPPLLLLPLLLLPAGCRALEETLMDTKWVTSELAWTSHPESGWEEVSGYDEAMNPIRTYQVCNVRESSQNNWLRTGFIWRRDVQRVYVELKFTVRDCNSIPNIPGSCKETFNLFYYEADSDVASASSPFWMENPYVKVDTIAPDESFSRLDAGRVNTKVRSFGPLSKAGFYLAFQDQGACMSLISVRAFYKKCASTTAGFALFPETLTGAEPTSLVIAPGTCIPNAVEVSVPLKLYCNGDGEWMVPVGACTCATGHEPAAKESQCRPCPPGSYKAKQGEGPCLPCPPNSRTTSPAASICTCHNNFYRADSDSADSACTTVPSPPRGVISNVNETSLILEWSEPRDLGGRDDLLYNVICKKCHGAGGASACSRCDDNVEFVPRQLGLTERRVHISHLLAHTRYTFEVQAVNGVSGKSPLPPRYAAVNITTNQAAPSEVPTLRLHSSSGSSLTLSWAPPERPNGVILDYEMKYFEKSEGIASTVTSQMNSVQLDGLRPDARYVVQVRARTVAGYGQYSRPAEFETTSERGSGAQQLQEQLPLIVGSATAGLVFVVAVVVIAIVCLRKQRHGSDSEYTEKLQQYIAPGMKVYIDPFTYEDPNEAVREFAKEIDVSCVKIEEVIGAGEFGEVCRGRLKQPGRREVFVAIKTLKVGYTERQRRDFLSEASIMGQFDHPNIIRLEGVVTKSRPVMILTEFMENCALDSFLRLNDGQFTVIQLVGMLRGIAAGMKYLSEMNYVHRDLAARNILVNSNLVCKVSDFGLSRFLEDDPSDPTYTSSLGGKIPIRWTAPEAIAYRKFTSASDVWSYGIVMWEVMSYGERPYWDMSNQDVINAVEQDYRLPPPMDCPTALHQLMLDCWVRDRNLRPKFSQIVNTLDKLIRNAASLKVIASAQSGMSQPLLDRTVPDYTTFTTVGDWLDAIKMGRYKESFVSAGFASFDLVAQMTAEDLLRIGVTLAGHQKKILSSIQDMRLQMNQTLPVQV

[8] = biological target: T4, STK17B (UniProt O94768)
T4 sequence (whole entry): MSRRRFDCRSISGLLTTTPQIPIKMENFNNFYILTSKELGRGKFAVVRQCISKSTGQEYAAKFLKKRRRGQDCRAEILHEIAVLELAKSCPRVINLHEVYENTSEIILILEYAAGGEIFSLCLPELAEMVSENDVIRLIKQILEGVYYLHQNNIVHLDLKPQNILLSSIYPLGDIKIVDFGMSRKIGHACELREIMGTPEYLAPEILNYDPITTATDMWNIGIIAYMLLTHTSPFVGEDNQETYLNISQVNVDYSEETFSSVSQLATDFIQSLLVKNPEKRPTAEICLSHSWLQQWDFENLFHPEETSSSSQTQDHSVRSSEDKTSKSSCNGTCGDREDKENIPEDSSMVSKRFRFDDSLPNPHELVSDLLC

[9] = biological target: CDK10 (UniProt Q15131)
[10] = biological target: STK35 (UniProt Q8TDR2)

apparent dissociation constant pKd app (-log10) [1] | apparent dissociation constant pKd app (-log10) [2] | apparent dissociation constant pKd app (-log10) [3] | apparent dissociation constant pKd app (-log10) [4] | apparent dissociation constant pKd app (-log10) [5] | apparent dissociation constant pKd app (-log10) [6] | apparent dissociation constant pKd app (-log10) [7] | apparent dissociation constant pKd app (-log10) [8] | apparent dissociation constant pKd app (-log10) [9] | apparent dissociation constant pKd app (-log10) [10] | SMILES
< 4.8 | < 4.6 | < 4.7 | < 4.5 | < 4.8 | < 4.5 | < 4.5 | < 4.6 | < 4.7 | < 4.5 | O=C(c1cc(Cc2n[nH]c(=O)c3ccccc23)ccc1F)N1CCN(C(=O)C2CC2)CC1 [Olaparib]
< 4.8 | < 4.6 | < 4.7 | < 4.5 | < 4.8 | < 4.5 | < 4.5 | < 4.6 | < 4.7 | < 4.5 | NC(=O)c1cccc2cn(-c3ccc([C@@H]4CCCNC4)cc3)nc12 [Niraparib]
< 4.8 | < 4.6 | < 4.7 | < 4.5 | < 4.8 | < 4.5 | < 4.5 | < 4.6 | < 4.7 | < 4.5 | Cn1ncnc1[C@H]1c2n[nH]c(=O)c3cc(F)cc(c23)N[C@@H]1c1ccc(F)cc1 [Talazoparib]
